Assay results from patent publication US9757471B2, “Protozoan variant-specific surface proteins (VSP) as carriers for oral drug delivery” (priority 2012, dated 2017).

Key:
[1] = tested on: trypsin; conditions: glucagon alone, 1 μg, 1 hour at 37° C., dot blot
[2] = combined with VSP carrier

Q: What does the source list for `CSCC[C@H](NC(=O)[C@H](CC(C)C)NC(=O)[C@H](Cc1c[nH]c2ccccc12)NC(=O)[C@H](CCC(N)=O)NC(=O)[C@@H](NC(=O)[C@H](Cc1ccccc1)NC(=O)[C@H](CC(=O)O)NC(=O)[C@H](CCC(N)=O)NC(=O)[C@H](C)NC(=O)[C@H](CCCN=C(N)N)NC(=O)[C@H](CCCN=C(N)N)NC(=O)[C@H](CO)NC(=O)[C@H](CC(=O)O)NC(=O)[C@H](CC(C)C)NC(=O)[C@H](Cc1ccc(O)cc1)NC(=O)[C@H](CCCCN)NC(=O)[C@H](CO)NC(=O)[C@H](Cc1ccc(O)cc1)NC(=O)[C@H](CC(=O)O)NC(=O)[C@H](CO)NC(=O)[C@@H](NC(=O)[C@H](Cc1ccccc1)NC(=O)[C@@H](NC(=O)CNC(=O)[C@H](CCC(N)=O)NC(=O)[C@H](CO)NC(=O)[C@@H](N)Cc1c[nH]cn1)[C@@H](C)O)[C@@H](C)O)C(C)C)C(=O)N[C@@H](CC(N)=O)C(=O)N[C@H](C(=O)O)[C@@H](C)O` [glucagon]?
A: effect of trypsin on glucagon [1]: proteolyzed; resistance of glucagon to pH-induced degradation [2]: increased the resistance
